Values quoted from earlier work in US9617230B2, “Creatine prodrugs, compositions and methods of use thereof” (Farmington Pharma Development, priority 2014, dated 2017).

Settings: ALS; cited from earlier work

Nc1nc2ccc(OC(F)(F)F)cc2s1 [riluzole]
extension of survival: about three
